{"source": "patent EP0073711A1", "about": "“Salts of 2-oxopentane-1,5-dicarboxylic acid, their preparation and pharmaceutical preparations containing these salts” (S.A. D[…] LEBAS (Société Anonyme), priority 1981, dated 1983)", "key": {"[1]": {"assay": "Solubility in water at 20°C", "assay_type": "physicochemical", "conditions": "calcium salt in the trihydrate state", "description": "La solubilité de ce sel à l'état trihydraté, dans l'eau à 20°C est de 9% en poids.\nLa solubilité du sel de lithium, dans l'eau à 20°C est de 5,5 % en poids."}, "souris": {"system": "souris", "assay": "Acute toxicity (DL50)", "assay_type": "in vivo", "text": "On a vérifié que les doses létales 50 (DL50) du sel acide de calcium de l'acide 2-oxo-1,5 pentane dioïque sont, chez la souris, de 10g par kg dans le cas d'une administration orale et de 2g par kg dans le cas d'une administration intrapéritonéale."}, "[2]": {"system": "système nerveux central de la souris", "assay": "Rotarod test (rotating cylinder) after chlorpromazine", "assay_type": "in vivo", "text": "Activité du sel acide de calcium de l'acide 2-oxo-1,5- pentane dioîque sur le système nerveux central de la souris.\n3. Test du \"rotarod\" (cylindre tournant)\nDans ce test, la souris tourne sur un cylindre animé d'un mouvement rotatif, perd l'équilibre et tombe après administration de chlorpromazine (CPZ)."}, "patient": {"system": "patient", "assay": "Clinical test: corrective effects on hypoxia (chamber, 12,5% O2)", "assay_type": "in vivo, homme", "conditions": "4g par jour per os for 8 days, compared with piracétam", "text": "1. Effets correctifs du sel acide de calcium de l'acide 2-oxo 1,5-pentane dioïgue sur l'hypoxie\nLe test est réalisé sur le patient après le passage de celui-ci en caisson sous une hypoxie à 12,5% d'O2."}}}
{"substance": "sel de calcium acide de l'acide 2-oxo-1,5- pentane dioïque", "values": [{"measurement": "solubilité dans l'eau à 20°C", "setting": "[1]", "value": 9, "unit": "% en poids"}, {"measurement": "doses létales 50 (DL50)", "setting": "souris; administration intrapéritonéale", "value": 2, "unit": "g par kg"}, {"measurement": "doses létales 50 (DL50)", "setting": "souris; administration orale", "value": 10, "unit": "g par kg"}, {"measurement": "déséquilibre moteur induit par le CPZ", "setting": "[2]", "value": "réduction du déséquilibre moteur"}, {"measurement": "effets sur les tracés des électrocardiogrammes et encéphalogrammes, le comportement et la thymie", "setting": "patient", "value": "plus nets"}]}
